Brain penetrance data for one compound are collected here from US20170197977A9, “COMPOSITIONS AND METHODS FOR TREATING NEURODEGENERATIVE DISEASE” (COGNITION THERAPEUTICS, INC., priority 2011, published 2017).

The nature of the data set: In vivo PK, plasma and brain levels. More on the design: species or system mouse. As to conditions: mouse.

`COc1cc(CCC(C)NCc2ccc(C(F)(F)F)cc2)ccc1O` (stereo not shown) [Compound II]: the Brain penetrance result is “highly brain penetrant”.
